Measured values taken from patent US20120082647A1, “INTERFERON-BETA FOR USE AS MONOTHERAPY OR IN COMBINATION WITH OTHER CANCER THERAPIES” (priority 2010, published 2012).

B1: human IFN-beta-1a: human interferon-beta glycosylated at residue 80 (Asn 80), derived via recombinant DNA technologies (protein, UniProt P01574 22-187, looked up)
Interferon beta: MSYNLLGFLQRSSNFQCQKLLWQLNGRLEYCLKDRMNFDIPEEIKQLQQFQKEDAALTIYEMLQNIFAIFRQDSSSTGWNETIVENLLANVYHQINHLKTVLEEKLEKEDFTRGKLMSSLHLKRYYGRILHYLKAKEYSHCAWTIVRVEILRNFYFINRLTGYLRN

Experiments:
[1] = Half-life of pegylated IFN-beta-1a in nude mice; format: in vivo
[2] = tested on: SK-MEL-1 human melanoma cells; test: Formation of tumor induced blood vessels in nude mice carrying SK-MEL-1 tumors; format: in vivo
[3] = tested on: A375 human melanoma cells; test: A-375 melanoma tumor volume in nude mice; format: in vivo
[4] = tested on: SN12C renal carcinoma cells; test: SN12C renal carcinoma tumor volume in SCID mice; format: in vivo; conditions: dosed at 0.8 mg/kg and 1.6 mg/kg
[5] = tested on: SW620 colon carcinoma cells; test: SW-620 colon carcinoma tumor volume in nude mice; format: in vivo; conditions: 0.4, 0.8 and 1.6 mg/kg subcutaneously BIW for 4 weeks, FIG. 10
[6] = tested on: MDA-MB-231 breast carcinoma cells; test: MDA-MB-231 breast carcinoma tumor volume in SCID mice; format: in vivo; conditions: paclitaxel 25 mg/kg I.P. q4d x 3, pegylated interferon beta 1a 0.4 to 1.6 mg/kg SC BIW
Procedure: 8-10 week old SCID mice from Charles River Labs were inoculated subcutaneously with 5×10^6 MDA-MB-231 breast carcinoma cells with 50% matrigel in the flank region. When the average tumor volumes reached approximately 200 mm^3 the tumor-bearing mice were randomized to treatment groups. Pegylated IFN-1a was provided in 20 mM acetic acid/sodium acetate at a pH of 4.8 and 150 mM arginine/HCl (4.8A buffer). Paclitaxel was provided in a Cremophor Ethanol Saline mixture (CES buffer).

[7] = tested on: human MDA-MB-468 breast carcinoma tumors; test: MDA-MB-468 breast carcinoma tumor volume in nude mice; format: in vivo; conditions: MDA-MB-468 tumors in nude mice; versus IFN-beta-1a or vehicle control; FIG. 13C
[8] = tested on: WM-266-4 melanoma cells; test: WM-266-4 melanoma tumor volume in nude mice; format: in vivo
[9] = tested on: murine (L929) cells; test: Activity of human IFN-beta-1a on murine cells (species specificity); format: cell-based; conditions: at concentrations 10-fold greater than required for full activity of murine IFN-beta

Molecule	half-life [1]	formation of tumor induced blood vessels, multiple dose study ([2]; 10 μg (1 MU) once on day 1 versus 5 μg (1 MU) IFN-beta-1a daily on days 1-9, FIG. 1B)	formation of tumor induced blood vessels, single dose study ([2]; 10 μg (1 MU) once on day 1 versus 5 μg (1 MU) IFN-beta-1a once on day 1, FIG. 1A)	formation of tumor induced blood vessels ([2]; SK-MEL-1 tumors, vessels entering tumor periphery counted day 10, versus control and IFN-beta-1a)	tumor growth inhibition, 1.6 mg/kg versus 0.4 or 0.8 mg/kg ([3]; 1.6 mg/kg (data not shown))	tumor growth inhibition, dose response ([3]; 0.1, 0.2, 0.4, 0.8 or 1.6 mg/kg S.C. BIW x 4 weeks (data not shown))	tumor growth inhibition, 0.4 versus 0.8 mg/kg ([3]; 0.4 or 0.8 mg/kg (data not shown))	tumor growth inhibition compared to its vehicle [4]	inhibition of tumor growth, dose response [5]	inhibition of tumor growth, single agent versus vehicle controls [6]	inhibition of tumor growth [7]	tumor inhibition/regression on drug and upon tumor regrowth ([8]; WM-266-4 (200 mm3), 0.4, 0.8 or 1.6 mg/kg QW, BIW or TIW for 4 weeks, FIGS. 17A-C)	tumor inhibition/regression on drug and upon tumor regrowth ([8]; WM-266-4 (400 cubic mm), 0.1, 0.2, 0.4, 0.8 mg/kg SC BIW for 4 weeks, FIG. 16)	effect on large tumors ([8]; WM-266-4 large tumors (2000-2400 cubic mm), 0.8 or 1.6 mg/kg BIWX4 from day 46, FIG. 18)	activity on murine (L929) cells [9]
pegylated IFN-beta-1a: Interferon beta-1a modified at the N-terminal α-amino group with a single, linear 20 kDa mPEG-O-2-methylpropionaldehyde group	approximately 10 hours	comparable (slightly superior) to IFN-beta-1a given daily on days 1-9	more effective than IFN-beta-1a given once on day 1	significantly more effective at reducing formation of tumor induced blood vessels	even larger tumor growth inhibition	tumor growth inhibition increases in mice as the dosages increase	almost similar	statistically significant tumor growth inhibition in a dose dependent manner	dose dependent	greater inhibition of tumor growth compared to mice treated with either vehicle controls	greater inhibition of tumor growth compared to mice treated with IFN-beta-1a or vehicle control	dose-dependent tumor inhibition/regression	dose-dependent tumor inhibition/regression	Tumor regression	–
B1	–	–	–	–	–	–	–	–	–	–	–	–	–	–	not active
